These are literature values, as cited in patent US20210319872A1, “DRUG AND DEVICE COMBINATION PRODUCTS WITH IMPROVED SAFETY AND EFFICACY PROFILES” (priority 2016, published 2021).

The conditions of the data set: in vivo.

Take `OCCOCCN1CCN(C2=Nc3ccccc3Sc3ccccc32)CC1` [Seroquel (Quetiapine)]: the “Increased diastolic arterial pressure” value is listed as 40.6%), Increased systolic arterial pressure (Pediatric, 15.2%), and the “Increased systolic arterial pressure” value is on record as 40.6%), Increased systolic arterial pressure (Pediatric, 15.2%),.
